Data on one molecule can be found in ChEMBL document CHEMBL1149384, “Identification of a novel spiropiperidine opioid receptor-like 1 antagonist class by a focused library approach featuring 3D-pharmacophore similarity” (J Med Chem, 2006).

For test [1], the target named is T1, Nociceptin receptor (Homo sapiens, UniProt P41146). Nature of the test: Antagonist activity on nociceptin-induced [35S]GTP-gamma-S binding to ORL1 expressed in CHO cells. On the technique in general: Binding of GTPγS marks nucleotide exchange on a G protein.
Test [2] has as its target T1, Nociceptin receptor. Nature of the test: Displacement of [125I]Tyr-nociceptin from cloned human ORL1 expressed in CHO cells.
In another test the target is Mu-type opioid receptor (Homo sapiens, UniProt P35372). Briefly: Displacement of [3H]diprenorphin from cloned human mu opioid receptor expressed in CHO cells.
The target of test [3] is Kappa-type opioid receptor (Homo sapiens, UniProt P41145). Nature of the test: Displacement of [3H]U-69593 from cloned human kappa opioid receptor expressed in CHO cells. For orientation: Displacement assays read how much labelled ligand stays bound in the presence of the test substance.

pIC50: −log10 of the molar value.

Usually pIC50 stands for −log10 of the IC50, conventionally taken in molar units. Turning to `CCn1c(=O)n([C@@H]2CCN(CC3CCCCCCC3)C[C@H]2CO)c2ccccc21`, the pIC50 is 8.82 at Nociceptin receptor [1], 8.62 on Nociceptin receptor [2], 5.47 on Mu-type opioid receptor and 5.80 in test [3].
